In assay [1] the target is Opioid receptors; mu & kappa (Homo sapiens) (UniProt P41145+P35372). As to the kind of experiment: Selective inhibitory activity was determined against kappa & mu opioid receptor in chinese Hamster Ovary (CHO) cell membranes.
The target of assay [2] is Opioid receptors; delta & kappa (Homo sapiens) (UniProt P41145+P41143). The assay is described as follows: Selective inhibitory activity was determined against kappa & delta opioid receptor in chinese Hamster Ovary (CHO) cell membranes.
In assay [3] the target is Kappa-type opioid receptor (Homo sapiens, UniProt P41145). As to the kind of experiment: Inhibitory activity in stimulating [35S]-GTP-gamma S binding mediated by the Opioid receptor kappa 1 in chinese Hamster Ovary (CHO) cell membranes was determined. It is filed as functional.
In the next assay the target is Mu-type opioid receptor (Homo sapiens, UniProt P35372). As to the kind of experiment: Inhibitory activity against Opioid receptor mu 1 in chinese Hamster Ovary (CHO) cells membranes was determined using [3H]-DAMGO radioligand. Type of assay: cell-based.

Sequences of proteins named here, by UniProt entry; tags and fusion partners are left off. A change or cut given only in a name is not applied to a line headed by its entry.
UniProt P41145: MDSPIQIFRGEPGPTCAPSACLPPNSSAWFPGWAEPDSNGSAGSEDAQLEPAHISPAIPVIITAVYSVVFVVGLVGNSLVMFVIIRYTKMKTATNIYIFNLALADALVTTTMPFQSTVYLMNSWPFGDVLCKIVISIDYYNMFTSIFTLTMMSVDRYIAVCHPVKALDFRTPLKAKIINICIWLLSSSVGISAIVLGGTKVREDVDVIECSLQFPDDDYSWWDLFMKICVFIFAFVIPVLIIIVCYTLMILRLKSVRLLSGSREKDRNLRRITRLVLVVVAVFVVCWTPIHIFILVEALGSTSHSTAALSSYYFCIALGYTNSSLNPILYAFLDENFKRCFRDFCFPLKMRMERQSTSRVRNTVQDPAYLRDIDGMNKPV
UniProt P35372, whole entry, looked up: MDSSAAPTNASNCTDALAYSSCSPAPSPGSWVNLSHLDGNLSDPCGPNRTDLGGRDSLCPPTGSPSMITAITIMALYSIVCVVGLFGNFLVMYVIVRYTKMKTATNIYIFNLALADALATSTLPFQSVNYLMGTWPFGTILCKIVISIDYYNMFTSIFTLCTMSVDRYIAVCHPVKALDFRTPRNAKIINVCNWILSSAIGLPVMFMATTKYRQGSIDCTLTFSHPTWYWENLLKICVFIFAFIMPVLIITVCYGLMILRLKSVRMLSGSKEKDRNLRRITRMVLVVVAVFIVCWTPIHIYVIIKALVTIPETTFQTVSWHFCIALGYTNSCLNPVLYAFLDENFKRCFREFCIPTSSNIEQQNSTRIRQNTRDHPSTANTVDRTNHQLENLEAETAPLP
UniProt P41143, whole entry, looked up: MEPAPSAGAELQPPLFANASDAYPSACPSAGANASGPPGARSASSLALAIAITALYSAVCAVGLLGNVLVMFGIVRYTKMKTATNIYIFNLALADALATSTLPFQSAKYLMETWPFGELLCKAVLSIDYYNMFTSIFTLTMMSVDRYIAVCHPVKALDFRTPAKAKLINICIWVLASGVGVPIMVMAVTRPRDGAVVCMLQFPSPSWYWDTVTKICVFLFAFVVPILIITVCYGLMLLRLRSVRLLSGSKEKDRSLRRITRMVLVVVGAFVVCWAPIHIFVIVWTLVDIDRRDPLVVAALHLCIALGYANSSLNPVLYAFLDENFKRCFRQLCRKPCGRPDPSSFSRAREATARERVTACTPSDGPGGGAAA

As a reminder, the EC50 is the concentration giving half of the maximal effect. Read a low EC50 as an effect from little substance. The Ki is a measure of affinity in units of concentration, obtained from inhibition or displacement. High values mean a looser hold on the target, low ones a stronger hold on the target.

Turning to `Oc1ccc2c(c1)[C@@]13CCCC[C@H]1[C@@H](C2)N(CC1CCC1)CC3` [BUTORPHAN], the Selectivity in assay [1] came to 3; in assay [2], 70.
Take `Oc1ccc2c(c1)[C@@]13CCCC[C@H]1[C@@H](C2)N(CC1CC1)CC3` [CYCLORPHAN]: in assay [3], a half-maximal response (EC50) required 0.19 nM.
At Mu-type opioid receptor, `CN1CC[C@]23CCCC[C@H]2[C@H]1Cc1ccc(O)cc13` [LEVORPHANOL] gave a Ki of 0.21 nM. The Selectivity in assay [1] is 0.09; in assay [2], 2.
